# How the values were obtained:
# Sequences of proteins named here, by UniProt entry; tags and fusion partners are left off. Residues count along the entry.
# UniProt P48443, whole entry: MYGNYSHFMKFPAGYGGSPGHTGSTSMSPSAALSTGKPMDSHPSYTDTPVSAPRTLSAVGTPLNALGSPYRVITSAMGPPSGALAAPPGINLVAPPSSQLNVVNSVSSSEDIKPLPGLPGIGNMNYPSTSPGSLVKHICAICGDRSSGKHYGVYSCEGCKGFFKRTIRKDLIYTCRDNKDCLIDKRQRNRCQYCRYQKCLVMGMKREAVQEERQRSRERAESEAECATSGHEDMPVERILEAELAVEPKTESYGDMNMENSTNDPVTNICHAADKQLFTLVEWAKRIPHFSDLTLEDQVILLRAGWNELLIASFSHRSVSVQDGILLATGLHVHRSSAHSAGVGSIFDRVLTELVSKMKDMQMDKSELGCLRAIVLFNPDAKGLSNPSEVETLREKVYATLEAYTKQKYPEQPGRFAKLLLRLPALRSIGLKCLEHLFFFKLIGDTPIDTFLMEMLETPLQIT
# UniProt P19793, whole entry: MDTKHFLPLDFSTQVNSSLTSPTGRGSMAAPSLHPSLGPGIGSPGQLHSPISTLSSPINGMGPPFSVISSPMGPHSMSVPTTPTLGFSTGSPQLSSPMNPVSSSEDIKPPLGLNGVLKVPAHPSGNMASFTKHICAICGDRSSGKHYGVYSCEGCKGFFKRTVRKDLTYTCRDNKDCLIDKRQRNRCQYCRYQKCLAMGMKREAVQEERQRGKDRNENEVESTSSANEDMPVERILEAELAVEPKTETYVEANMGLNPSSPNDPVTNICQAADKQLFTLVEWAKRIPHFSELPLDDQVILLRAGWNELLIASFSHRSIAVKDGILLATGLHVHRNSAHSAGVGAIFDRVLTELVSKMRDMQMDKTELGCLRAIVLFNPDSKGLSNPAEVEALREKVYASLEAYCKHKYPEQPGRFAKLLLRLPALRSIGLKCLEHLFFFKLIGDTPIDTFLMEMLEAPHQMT
# UniProt P43354, 328-598 partner limits assumed: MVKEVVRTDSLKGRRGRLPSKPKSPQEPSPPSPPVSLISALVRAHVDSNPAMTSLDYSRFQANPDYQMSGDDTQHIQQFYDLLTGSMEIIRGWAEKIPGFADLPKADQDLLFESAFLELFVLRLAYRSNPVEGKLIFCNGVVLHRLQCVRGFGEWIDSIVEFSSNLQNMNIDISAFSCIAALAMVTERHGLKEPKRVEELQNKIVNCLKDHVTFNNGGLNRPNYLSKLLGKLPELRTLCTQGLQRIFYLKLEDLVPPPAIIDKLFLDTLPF
# [1] = molecular target: hNurr1_RXRγFL (NURR-1/RXRγ heterodimer) (Homo sapiens, UniProt P48443); experiment: Transactivation assay, NURR-1-Gal4/RXRγ luciferase reporter in Cos-7 cells
# Description: (§1) To start with, using an in vitro assay, the capacity of the compounds according to the invention to behave as an activator of the heterodimers formed by the NURR-1 nuclear receptor and the RXR nuclear receptors was measured.
# (§2) A transactivation assay was used as a primary screening test. Cos-7 cells were co-transfected with a plasmid expressing a chimera of the human receptor NURR-1-Gal4, a plasmid expressing the RXR human receptor (RXRα or RXRγ receptor) and a reporter plasmid 5Gal4pGL3-TK-Luc. The transfections were carried out using a chemical agent (Jet PEI).
# (§3) The transfected cells were distributed in 384-well plates and left to stand for 24 hours.
# (§4) After 24 hours, the culture medium was changed. The test products were added (final concentration between 10^−4 and 3.10^−10 M) in the culture medium. After incubation overnight, the expression of luciferase was measured after addition of “SteadyGlo” in accordance with the manufacturer's (Promega) instructions.
# (§5) 4-[[6-Methyl-2-phenyl-5-(2-propenyl)-4-pyrimidinyl]amino]benzoic acid (called XCT0135908) at 2×10^−5 M (RXR agonist) was used as reference.
# (§6) The levels of induction were calculated in relation to the basal activity of each heterodimer. The results were expressed as a percentage of the level of induction relative to the level of induction obtained with the reference (the level of induction of the reference is arbitrarily equal to 100%).
# [2] = test system: hNurr1_RXRγFL (NURR-1/RXRγ heterodimer); experiment: as above; conditions: NURR-1/RXR transactivation, both heterodimers of the table
# Description: as §1, §2, §3, §4, §5, §6
# [3] = molecular target: hNurr1_RXRαFL (NURR-1/RXRα heterodimer) (Homo sapiens, UniProt P19793); experiment: Transactivation assay, NURR-1-Gal4/RXRα luciferase reporter in Cos-7 cells
# Description: as §1, §2, §3, §4, §5, §6
# [4] = level of induction relative to XCT0135908 at 2×10^-5 M = 100%
smiles,measurement,setting,value
CC(C)c1ccc(S(=O)(=O)n2c(CCCC(=O)O)cc3cc(Cl)ccc32)cc1,Eff hNurr1_RXRγFL (efficacy relative to the reference XCT0135908),[1]; [4],74%
same,EC50,"[1]; read-out: EC50 hNurr1_RXRγFL, Cos-7 cells, Gal4 luciferase reporter",1110 nM
same,EC50 of comparative compound relative to compounds of the invention (times greater),[2],at least 10 times
same,Eff hNurr1_RXRαFL (efficacy relative to the reference XCT0135908),[3]; [4],75%
same,EC50,"[3]; read-out: EC50 hNurr1_RXRαFL, Cos-7 cells, Gal4 luciferase reporter",571 nM

# From patent US8575210B2, “Use of indole derivatives as NURR-1 activators for treating parkinson's disease” (Laboratoires Fournier SA, priority 2008, dated 2013)
